Laboratory results as given in PubChem BioAssay AID492999 (Johns Hopkins Ion Channel Center, 2010).
Only a part is listed here, and it is no random draw. The source made the active and inactive calls.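 The calls were made as follows: active = duplicate-averaged calcium response above the buffer-only control mean plus 5 SD of those controls; inactive = the rest.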

Experiment: increase of M3R-evoked calcium signal – cell-based, validation screen, HEK293 M3R/RGS4, calcium flux, RGS4 inhibitor project (AID 492999);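 also: integrated fluorescence ratio F max minus min over baseline F0; higher response in RGS4-induced cells means RGS4 inhibition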
Details: HEK293 M3R/RGS4, carbachol calcium Fluo-4 fluorescence; at 10 µM; stronger effect = higher value; 0 = buffer wells, 100 = carbachol control; carbachol added at its EC20

Row | SMILES | calcium response
1 | CCc1nc2c(n1)c1c(non1O)c1c2no[n+]1[O-] | active: 18%
